Molecular target: NLRP3 (Homo sapiens, UniProt Q96P20)
Assay: IC50 of NLRP3 inhibitors in reducing IL-1β secretion by THP-1 cells (PMA, LPS, nigericin; ELISA)
Details: compound + nigericin 1 h

Chains of the proteins cited; added tags and fusions are not shown.
UniProt Q96P20, whole entry: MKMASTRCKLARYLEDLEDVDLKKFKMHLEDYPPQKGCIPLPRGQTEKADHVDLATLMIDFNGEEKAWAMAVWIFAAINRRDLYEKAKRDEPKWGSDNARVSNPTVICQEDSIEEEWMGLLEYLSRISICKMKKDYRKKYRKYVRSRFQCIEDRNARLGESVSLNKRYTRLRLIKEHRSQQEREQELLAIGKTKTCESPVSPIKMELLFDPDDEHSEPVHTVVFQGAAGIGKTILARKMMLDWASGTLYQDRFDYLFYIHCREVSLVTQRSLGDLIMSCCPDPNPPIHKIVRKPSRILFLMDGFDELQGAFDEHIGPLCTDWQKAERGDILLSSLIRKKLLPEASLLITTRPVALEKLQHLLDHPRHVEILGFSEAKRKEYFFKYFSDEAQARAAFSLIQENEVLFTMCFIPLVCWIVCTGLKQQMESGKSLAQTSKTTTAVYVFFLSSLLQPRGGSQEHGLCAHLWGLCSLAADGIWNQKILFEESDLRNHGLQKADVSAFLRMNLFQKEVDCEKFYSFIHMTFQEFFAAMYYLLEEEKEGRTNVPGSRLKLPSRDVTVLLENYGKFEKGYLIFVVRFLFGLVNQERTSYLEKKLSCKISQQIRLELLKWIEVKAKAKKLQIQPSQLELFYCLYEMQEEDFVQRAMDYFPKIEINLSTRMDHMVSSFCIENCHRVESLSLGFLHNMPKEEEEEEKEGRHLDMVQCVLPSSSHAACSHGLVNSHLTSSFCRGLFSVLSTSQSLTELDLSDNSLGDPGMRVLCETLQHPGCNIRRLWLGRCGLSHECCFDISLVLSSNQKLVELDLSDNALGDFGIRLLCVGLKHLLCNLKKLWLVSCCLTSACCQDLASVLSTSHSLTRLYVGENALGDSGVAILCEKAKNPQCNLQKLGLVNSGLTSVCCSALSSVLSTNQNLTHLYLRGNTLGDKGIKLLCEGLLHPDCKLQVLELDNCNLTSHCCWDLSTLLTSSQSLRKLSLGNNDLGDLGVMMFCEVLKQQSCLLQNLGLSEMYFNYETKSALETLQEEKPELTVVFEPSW

Row | IC50 [nM] | SMILES
1 | 41 | Oc1cc(Cl)ccc1-c1nnc(NC2CCCC(=C(F)F)C2O)c2cnccc12 (stereo not drawn)
2 | 32 | Oc1cc(C(F)(F)F)ccc1-c1nnc(NC2CCCC(=C(F)F)C2O)c2cnccc12 (single isomer, unassigned)

Row | SMILES | IC50 [nM]
3 | CC(C)(C#N)c1cccc(Nc2nnc(-c3ccc(Cl)cc3O)c3ccncc23)c1 | 98

Reference: US20260216182A1, “PYRIDAZINE NLRP3 INHIBITOR COMPOUND, PHARMACEUTICAL COMPOSITION, AND PREPARATION METHOD THEREFOR AND USE THEREOF” (CHANGCHUN GENESCIENCE PHARMACEUTICAL CO., LTD., priority 2022, published 2026)
